## Antibody variant affinities, Ab-14 heavy chain, assay B

Data: MIT Lincoln Laboratory AlphaSeq set, Li et al. 2023, doi:10.1038/s41467-023-39022-2, as distributed in FLAb.

Antigen: PDVDLGDISGINAS, a 14-residue peptide of the SARS-CoV-2 spike HR2 region.

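Designed CDR sequences, proposed from the first random library and measured here. Several design methods are mixed in this list. AlphaSeq pools MATa yeast showing the antibodies with MATalpha yeast showing the peptide. Pairs that bind mate more often; barcode pairs of the diploids are counted by sequencing. Read counts were normalised to the haploid input and turned into Kd by a linear fit to BCL2-family pairs of known affinity, for each replicate. The assay was run in six technical replicates.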

Each scFv is VH, a (GGGGS)3 linker, VL, as in the parent Ab-14, and differs from it in the CDRs of the heavy chain only.
VH: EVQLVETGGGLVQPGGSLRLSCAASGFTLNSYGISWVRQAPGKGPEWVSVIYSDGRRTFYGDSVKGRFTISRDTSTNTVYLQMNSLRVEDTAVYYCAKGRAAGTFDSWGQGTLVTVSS
VL: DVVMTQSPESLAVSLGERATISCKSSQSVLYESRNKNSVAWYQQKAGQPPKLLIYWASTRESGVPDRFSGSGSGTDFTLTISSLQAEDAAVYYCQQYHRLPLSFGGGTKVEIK

Each variant is given by its three heavy chain CDRs, as the data file delimits them; those of the parent are GFTLNSYGIS, VIYSDGRRTFYGDSVK, GRAAGTFDS.
This list holds designs with at most six substitutions.
Affinities are written as log10 Kd with Kd in nM; a lower number is a better binder.
Averages over replicates are reported, and they cover detected replicates only.
A pair that was not seen in that replicate is written "ND"; this usually means weak binding, but a binder can also be missed.
Order: sorted from the lowest average up, undetected variants last.
Values of this round are not directly comparable with the first-round values of the same sequences.
The authors averaged sequences with at least three values out of six and counted those with two or fewer as poor binders.
Empty control strains, which show no peptide, gave a signal in 1% of pairings with all heavy chain designs; the median was 2.08 and 95% of these signals were weaker than 0.84. No background was subtracted.

CDR-H1,CDR-H2,CDR-H3,"replicates, log10 nM","mean, log10 nM"
GFTLNSYGIS,VIYADGRRTFYGDSVK,GGAAGTFDS,-0.32 / -0.45 / -0.22 / -0.35 / -0.29 / -0.11,-0.29
GFSLNSYGIS,VIYADGRRTFYGDQVK,GEAAGTFDS,-0.28 / -0.33 / -0.49 / -0.13 / -0.48 / 0.10,-0.27
GFELNSYGIS,VIYSDGRRTFYTDDVK,GRTAGTFDS,0.08 / -0.66 / 0.37 / -0.35 / -0.78 / -0.18,-0.25
GFDLNEYGIS,VIYSDGRRTFYADSVK,GREAGTFDS,0.11 / -0.04 / -0.08 / -0.30 / -0.40 / -0.24,-0.16
GFTLNEYGIS,VIYSDGRRTFYSDAVK,GRMAGTFDS,0.18 / -0.07 / -0.28 / -0.30 / -0.11 / -0.03,-0.10
GFTLNEYGIS,VIYSDGRRTFYGDSVK,GSAAGTFDL,0.00 / 0.14 / 0.10 / -0.04 / -0.12 / 0.15,0.04
GFDLNEYGIS,VIYADGRRTFYTDSVK,GNAAGTFDV,0.24 / -0.36 / 0.13 / -0.07 / 0.37 / -0.02,0.05
GFELNSYGIS,VIYADGRRTFYGDSVK,GRAAGTFDK,0.44 / 0.04 / -0.17 / 0.06 / -0.04 / 0.49,0.14
GFSLNEYGIS,VIYADGRRTFYGDSVK,GGAAGTFDS,0.37 / -0.08 / 0.29 / -0.15 / 0.56 / -0.07,0.15
GFELNSYGIS,VIYSDGRRTFYADSVK,GQAAGTFDS,0.61 / 0.05 / 0.05 / -0.15 / 0.27 / 0.43,0.21
GFDLNTYGIS,VIYSDGMRTFYGDSVK,GRTAGTFDS,0.07 / 0.07 / 0.64 / 0.22 / -0.12 / 1.19,0.34
GFSLNMYGIS,VIYSDGRRTQYADSVK,GRAAGTFDS,0.17 / 0.93 / 0.73 / -0.12 / 0.29 / 0.17,0.36
GFTLNSYGIS,VIYSDGRRTFYGDAVK,GEAAGTFDK,ND / 0.46 / ND / ND / ND / ND,0.46
KFDLNSYGIS,VIYSDGKRTFYADSVK,GRMAGTFDS,0.24 / 0.27 / 0.75 / 0.23 / 0.08 / 1.77,0.56
GFNLNSYGIS,VIYSDGRRTFYADPVK,GNAAGTFDS,1.04 / 0.51 / 0.53 / 0.55 / 0.30 / 0.75,0.61
GFGLNSYGIS,VIYSDGRRTFYIDSVK,GWTAGTFDS,ND / 1.04 / ND / 1.12 / 0.07 / ND,0.74
GFTLNSYGIS,VIYSDGRRTFYSDSVR,GRAAGTFDS,0.87 / 0.69 / 0.86 / 0.72 / 0.81 / 0.83,0.80
GFTLNEYGIS,VIYSDGFRTFYGDSVK,GRAAGTFDS,0.75 / 1.36 / 1.00 / 0.55 / 0.44 / 0.82,0.82
GFTLNSYGIS,VIYSDGRRTFYADSVK,GKAAGTFDL,ND / ND / ND / 0.90 / ND / 0.99,0.94
GETLNSYGIS,VIYSDGRRTFYGDSVK,GRAAGTFDE,ND / ND / 0.96 / ND / ND / ND,0.96
GFELNSYGIS,VIYSDGRRTFYVDSVK,GQTAGTFDS,1.83 / 0.74 / 0.93 / 1.19 / 0.58 / 0.91,1.03
GFTLNSYGIS,VIYSDGRRTFYADSVK,GEAAGTFDT,1.26 / 0.54 / ND / ND / ND / 1.56,1.12
GKDLNSYGIS,VIYSDGRRTFYGDSVK,GRTAGTFDS,1.01 / 1.32 / 0.60 / 1.47 / 1.37 / 1.11,1.15
GFELNSYGIS,VIYSDGRRTFYSDQVK,GEAAGTFDS,1.22 / 0.94 / 0.83 / ND / ND / 1.98,1.24
GSTLNSYGIS,VIYSGGRRTFYSDEAK,GRAGGTFDS,ND / ND / ND / 1.27 / ND / ND,1.27
GFTLNEYGIS,VIYSDGRRTFYGDAVK,GRAAGFFDS,1.30 / 1.90 / 1.56 / 1.23 / 0.91 / ND,1.38
GFWLNDYGIS,VIYSDGRRTFYADSVK,GRAAGTFDV,1.70 / 1.04 / 1.37 / 1.67 / 1.04 / 1.83,1.44
GFHLESYGIS,VIYSDGRRTFYTDSVK,GRAAGTFDS,1.70 / 2.62 / 0.78 / 2.52 / ND / 1.21,1.77
GFTLNSYGIQ,VIYSDGRRTFYGDSVK,GRAAGTFDC,ND / ND / ND / ND / ND / ND,ND
GFTLTEYGIS,VIYSDGRRTFYGDSVK,GRAAVTFDQ,ND / ND / ND / ND / ND / ND,ND
KFSLNSYGIS,VIYSDGRRTFYGDSVK,GREAGTFDS,ND / ND / ND / ND / ND / ND,ND
GFTLNEYGIS,VIYSDGRRTFYGDSVK,GRTAGTFIS,ND / ND / ND / ND / ND / ND,ND
GFTLNQYGIS,VIYSDGRYTFYGDSVK,GRAAPTFIS,ND / ND / ND / ND / ND / ND,ND
GFTLNYYGIS,VIYSDGRRTQYIDSVK,GPAAGTFCS,ND / ND / ND / ND / ND / ND,ND
GFTLNEYGIS,VIYSDGRRTFYTDSVK,GRLAGTFIS,ND / ND / ND / ND / ND / ND,ND
GFTLNDYGIS,VIYSDGRRTFYGDNVR,DRAAGTIDS,ND / ND / ND / ND / ND / ND,ND
DFTLNSYGIS,VIYADGRRTFYGDSVV,GRKAGTFDS,ND / ND / ND / ND / ND / ND,ND
GQTLNSYGIS,VIYSDGRRTFYGDSVK,GMAAGTFSI,ND / ND / ND / ND / ND / ND,ND
GFTLNSYGIS,VIYSDGRRTFYQDSVK,GRAAGTFKS,ND / ND / ND / ND / ND / ND,ND
GFSLNEYGIS,VIYSDGRRTFYCDSVK,GKAAGTFDL,ND / ND / ND / ND / ND / ND,ND
GFTINSAGIS,VIYSDGRRTFYSDSVK,GRAAGTFDS,ND / ND / ND / ND / ND / ND,ND
GFILNDYGIS,VIYSDGRRTNYIMSVK,GRAAGTFDS,ND / ND / ND / ND / ND / ND,ND
GFQLNEYGIS,VIYSDGRRTFYGDSVK,GRAAGTFIS,ND / ND / ND / ND / ND / ND,ND
GETLNSYGIS,VIYSDGRRTFYKDSVK,GRACGTFDS,ND / ND / ND / ND / ND / ND,ND

Picked from the list: the 5 lowest averages where every replicate gave a value.

CDR-H1,CDR-H2,CDR-H3,"replicates, log10 nM","mean, log10 nM"
GFTLNSYGIS,VIYADGRRTFYGDSVK,GGAAGTFDS,-0.32 / -0.45 / -0.22 / -0.35 / -0.29 / -0.11,-0.29
GFSLNSYGIS,VIYADGRRTFYGDQVK,GEAAGTFDS,-0.28 / -0.33 / -0.49 / -0.13 / -0.48 / 0.10,-0.27
GFELNSYGIS,VIYSDGRRTFYTDDVK,GRTAGTFDS,0.08 / -0.66 / 0.37 / -0.35 / -0.78 / -0.18,-0.25
GFDLNEYGIS,VIYSDGRRTFYADSVK,GREAGTFDS,0.11 / -0.04 / -0.08 / -0.30 / -0.40 / -0.24,-0.16
GFTLNEYGIS,VIYSDGRRTFYSDAVK,GRMAGTFDS,0.18 / -0.07 / -0.28 / -0.30 / -0.11 / -0.03,-0.10